Reference: patent US20140349297A1, “FLUORESCENT DYES BASED ON ACRIDINE AND ACRIDINIUM DERIVATIVES” (Almac Sciences (Scotland) Limited, priority 2011, published 2014)

Target: T1, recombinant Caspase 3 (Homo sapiens, UniProt P42574)
T1 sequence (P42574 29-175 limits assumed): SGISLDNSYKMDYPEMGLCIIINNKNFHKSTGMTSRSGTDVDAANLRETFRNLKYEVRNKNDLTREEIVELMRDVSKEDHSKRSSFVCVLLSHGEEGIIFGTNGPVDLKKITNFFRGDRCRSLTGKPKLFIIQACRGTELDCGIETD
T1 sequence (P42574 176-277 limits assumed): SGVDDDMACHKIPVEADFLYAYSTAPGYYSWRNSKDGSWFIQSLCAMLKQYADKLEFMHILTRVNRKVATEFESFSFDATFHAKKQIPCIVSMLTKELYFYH
Experiment: biochemical

## CC(=O)N[C@@H](CC(=O)O)C(=O)N[C@@H](CCC(=O)O)C(=O)N[C@H](C(=O)N[C@H](C=O)CC(=O)O)C(C)C [AcDEVD-CHO]
  pIC50: 8.48

pIC50: −log10 of the molar value.
